Literature values, collected in US20100136097A1, “Systems for modulating inflammation” (Searete LLC, a limited liability corporation of the State …, priority 2008, published 2010).

Amino acid sequences for entries named in this document (tags omitted). Residues count along the entry.
UniProt P09619, 33-1106: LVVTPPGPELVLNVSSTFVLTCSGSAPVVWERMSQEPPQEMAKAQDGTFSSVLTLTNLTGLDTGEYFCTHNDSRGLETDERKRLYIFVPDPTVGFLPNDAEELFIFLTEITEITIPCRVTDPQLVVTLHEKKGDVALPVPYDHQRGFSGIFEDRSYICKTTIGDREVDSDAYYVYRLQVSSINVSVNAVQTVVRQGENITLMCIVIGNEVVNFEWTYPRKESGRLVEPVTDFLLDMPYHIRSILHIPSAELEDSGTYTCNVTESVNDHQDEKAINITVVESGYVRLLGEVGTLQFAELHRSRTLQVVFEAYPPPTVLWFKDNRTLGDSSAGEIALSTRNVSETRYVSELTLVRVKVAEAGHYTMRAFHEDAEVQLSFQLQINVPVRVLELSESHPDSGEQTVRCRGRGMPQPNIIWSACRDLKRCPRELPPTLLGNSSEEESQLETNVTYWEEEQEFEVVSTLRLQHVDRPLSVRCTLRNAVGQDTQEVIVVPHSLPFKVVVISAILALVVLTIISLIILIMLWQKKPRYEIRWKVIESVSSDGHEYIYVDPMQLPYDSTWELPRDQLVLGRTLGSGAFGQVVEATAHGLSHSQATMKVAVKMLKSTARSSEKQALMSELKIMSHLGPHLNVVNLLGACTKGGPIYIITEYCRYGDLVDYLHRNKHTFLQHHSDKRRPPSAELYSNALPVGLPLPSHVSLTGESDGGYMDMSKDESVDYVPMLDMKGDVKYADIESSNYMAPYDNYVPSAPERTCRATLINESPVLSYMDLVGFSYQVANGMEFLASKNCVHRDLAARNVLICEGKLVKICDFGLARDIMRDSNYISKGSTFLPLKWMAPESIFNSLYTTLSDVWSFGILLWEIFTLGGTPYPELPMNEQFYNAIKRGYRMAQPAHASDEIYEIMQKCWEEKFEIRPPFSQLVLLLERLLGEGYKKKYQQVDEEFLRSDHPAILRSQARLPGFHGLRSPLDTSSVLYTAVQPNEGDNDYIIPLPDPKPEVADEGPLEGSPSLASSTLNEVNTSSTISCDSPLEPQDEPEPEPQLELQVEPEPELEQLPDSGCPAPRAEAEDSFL
UniProt P10721, 26-976: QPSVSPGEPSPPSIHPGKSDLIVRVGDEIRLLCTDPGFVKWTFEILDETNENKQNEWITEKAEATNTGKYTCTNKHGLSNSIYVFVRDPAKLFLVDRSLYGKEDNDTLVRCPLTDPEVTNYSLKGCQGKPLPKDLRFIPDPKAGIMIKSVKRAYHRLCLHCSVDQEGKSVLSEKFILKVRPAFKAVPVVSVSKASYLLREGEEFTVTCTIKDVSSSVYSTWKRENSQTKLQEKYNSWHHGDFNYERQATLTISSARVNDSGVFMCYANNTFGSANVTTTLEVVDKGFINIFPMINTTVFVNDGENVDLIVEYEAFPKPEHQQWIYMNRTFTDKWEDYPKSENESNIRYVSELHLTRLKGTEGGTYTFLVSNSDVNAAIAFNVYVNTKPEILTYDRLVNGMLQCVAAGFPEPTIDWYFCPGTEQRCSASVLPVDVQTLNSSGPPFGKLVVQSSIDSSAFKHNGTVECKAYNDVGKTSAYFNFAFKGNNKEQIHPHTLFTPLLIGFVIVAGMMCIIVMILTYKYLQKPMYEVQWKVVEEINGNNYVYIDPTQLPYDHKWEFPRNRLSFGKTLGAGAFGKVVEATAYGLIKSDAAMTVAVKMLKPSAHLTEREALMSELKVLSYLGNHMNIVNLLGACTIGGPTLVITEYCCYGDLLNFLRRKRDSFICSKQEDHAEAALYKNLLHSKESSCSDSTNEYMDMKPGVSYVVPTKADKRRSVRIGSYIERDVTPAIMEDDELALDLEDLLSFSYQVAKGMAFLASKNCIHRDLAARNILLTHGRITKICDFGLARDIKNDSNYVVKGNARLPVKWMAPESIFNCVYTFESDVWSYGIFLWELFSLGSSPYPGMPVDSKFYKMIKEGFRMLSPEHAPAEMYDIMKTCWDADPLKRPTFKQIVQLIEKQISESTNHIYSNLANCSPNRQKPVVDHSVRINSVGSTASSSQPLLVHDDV

What was measured:
PDGFRβ = PDGFRβ (Homo sapiens, UniProt P09619); conditions: at nanomolar concentrations
c-Kit = c-Kit (Homo sapiens, UniProt P10721); conditions: at nanomolar concentrations

Cc1nc(Nc2ncc(C(=O)Nc3c(C)cccc3Cl)s2)cc(N2CCN(CCO)CC2)n1.O [dasatinib, N-(2-chloro-6-methylphenyl)-2-[[6-[4-(2-hydroxyethyl)-1-piperazinyl]-2-methyl-4-pyrimidinyl]amino]-5-thiazolecarboxamide, monohydrate]
inhibition of PDGFRβ (PDGFRβ): inhibits | inhibition of c-Kit (c-Kit): inhibits
